{
  "source": "patent US20210008048A1",
  "about": "“COMPOSITIONS AND METHODS FOR CANCER TREATMENT” (Dana-Farber Cancer Institute, Inc., priority 2018, published 2021)",
  "origin": "cited, not measured here",
  "key": {"TLR7": {"target": "T1, TLR7 (Homo sapiens, UniProt Q9NYK1)", "T1 construct": "expressed in transfected cells; host or cells: HEK293", "T1 sequence (Q9NYK1 27-1049)": "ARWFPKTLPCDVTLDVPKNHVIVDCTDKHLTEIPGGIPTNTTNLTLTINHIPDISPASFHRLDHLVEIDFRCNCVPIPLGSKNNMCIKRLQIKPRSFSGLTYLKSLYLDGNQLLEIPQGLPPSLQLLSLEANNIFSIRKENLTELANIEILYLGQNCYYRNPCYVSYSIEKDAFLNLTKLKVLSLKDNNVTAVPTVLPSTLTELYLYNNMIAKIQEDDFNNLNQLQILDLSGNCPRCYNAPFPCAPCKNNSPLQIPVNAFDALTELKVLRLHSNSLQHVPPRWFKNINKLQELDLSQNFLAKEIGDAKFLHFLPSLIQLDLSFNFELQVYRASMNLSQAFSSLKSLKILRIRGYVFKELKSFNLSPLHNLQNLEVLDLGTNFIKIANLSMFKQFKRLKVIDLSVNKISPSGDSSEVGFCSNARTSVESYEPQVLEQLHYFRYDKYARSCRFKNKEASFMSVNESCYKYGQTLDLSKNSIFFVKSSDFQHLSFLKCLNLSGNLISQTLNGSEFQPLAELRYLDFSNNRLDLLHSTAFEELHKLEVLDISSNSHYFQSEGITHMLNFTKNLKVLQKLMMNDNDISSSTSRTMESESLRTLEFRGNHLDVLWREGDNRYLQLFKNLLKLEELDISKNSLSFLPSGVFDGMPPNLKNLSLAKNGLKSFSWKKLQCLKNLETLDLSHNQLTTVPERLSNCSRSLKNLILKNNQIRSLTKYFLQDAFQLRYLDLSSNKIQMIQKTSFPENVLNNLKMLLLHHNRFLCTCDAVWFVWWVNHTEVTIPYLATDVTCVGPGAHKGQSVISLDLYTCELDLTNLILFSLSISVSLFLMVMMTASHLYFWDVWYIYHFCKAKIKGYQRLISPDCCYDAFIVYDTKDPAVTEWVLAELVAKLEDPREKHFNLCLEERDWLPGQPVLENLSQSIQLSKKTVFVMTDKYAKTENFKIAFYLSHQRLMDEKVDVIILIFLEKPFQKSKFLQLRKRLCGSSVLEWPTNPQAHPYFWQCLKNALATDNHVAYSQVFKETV", "settings": "cited from earlier work"}, "TLR8": {"target": "T2, TLR8 (Homo sapiens, UniProt Q9NR97)", "T2 construct": "expressed in transfected cells; host or cells: HEK293", "T2 sequence (Q9NR97 27-1041)": "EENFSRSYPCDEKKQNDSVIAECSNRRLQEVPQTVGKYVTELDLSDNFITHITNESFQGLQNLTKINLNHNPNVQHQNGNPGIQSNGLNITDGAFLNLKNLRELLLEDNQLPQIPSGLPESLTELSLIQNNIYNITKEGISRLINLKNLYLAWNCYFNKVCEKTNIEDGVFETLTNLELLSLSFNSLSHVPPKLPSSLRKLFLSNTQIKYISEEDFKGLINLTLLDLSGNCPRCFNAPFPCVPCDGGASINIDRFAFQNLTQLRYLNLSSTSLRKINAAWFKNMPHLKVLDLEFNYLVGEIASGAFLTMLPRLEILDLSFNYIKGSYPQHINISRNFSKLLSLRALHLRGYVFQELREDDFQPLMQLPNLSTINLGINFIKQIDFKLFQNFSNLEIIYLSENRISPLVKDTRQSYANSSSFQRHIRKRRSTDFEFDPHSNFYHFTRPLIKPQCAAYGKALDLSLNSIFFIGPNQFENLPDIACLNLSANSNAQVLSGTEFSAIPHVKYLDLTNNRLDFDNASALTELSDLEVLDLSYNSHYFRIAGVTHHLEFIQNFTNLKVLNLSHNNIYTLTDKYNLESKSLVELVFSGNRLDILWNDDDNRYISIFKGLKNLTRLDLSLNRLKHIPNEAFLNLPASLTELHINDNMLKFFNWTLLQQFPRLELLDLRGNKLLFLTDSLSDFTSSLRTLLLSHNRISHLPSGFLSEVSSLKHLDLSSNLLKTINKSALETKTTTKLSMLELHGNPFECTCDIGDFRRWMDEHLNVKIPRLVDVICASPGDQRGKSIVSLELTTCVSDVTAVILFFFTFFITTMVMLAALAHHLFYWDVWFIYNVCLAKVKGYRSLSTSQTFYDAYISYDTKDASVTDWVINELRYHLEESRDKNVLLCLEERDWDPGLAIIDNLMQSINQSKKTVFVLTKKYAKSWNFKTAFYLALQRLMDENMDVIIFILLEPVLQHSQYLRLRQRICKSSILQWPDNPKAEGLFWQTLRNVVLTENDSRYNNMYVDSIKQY", "settings": "cited from earlier work"}},
  "note": "Where “and” joins values, the source holds several entries; their conditions need not be identical. Equal values may be shown once.",
  "data": [
    {"smiles": "CCOCc1nc2c(N)nc3ccccc3c2[nH]1", "note": "[CL097]", "values": [
      {"measurement": "concentration inducing NF-κB activation", "setting": "TLR7", "result": "0.4 μM and 0.1 μg/ml"},
      {"measurement": "concentration inducing NF-κB activation", "setting": "TLR8", "result": "4 μM and 1 μg/ml"}
    ]}
  ]
}
